Tested on: Rb phosphorylation at threonine 821 in Jurkat cells
Settings: various concentrations, 36 hours prior to lysis, lysates normalized for total Rb, FIG. 12

SMILES: CN[C@@H]1C[C@H]2O[C@@](C)([C@@H]1OC)n1c3ccccc3c3c4c(c5c6ccccc6n2c5c31)C(=O)NC4 [staurosporine]
- Levels of Rb phosphorylation at threonine 821: inhibits the phosphorylation of Rb at threonine 821
